Measurements published in US20210290732A1, “GLP-1R and GCGR Agonists, Formulations, and Methods of Use” (Spitfire Pharma LLC, priority 2020, published 2021).
Where “and” joins values, the source holds several entries; their conditions need not be identical. Equal entries are not always repeated.

Assays:
[1] = plasma protein binding by ultracentrifugation, rat plasma; assay type: in vitro ADME; settings: pH 7.4, 15000 ng/mL, 37° C., 6 hours
Excerpt: (§1) Such non-covalent binding to albumin is anticipated to slow down the degradation of peptide in plasma and results in decreased renal clearance. […] Pooled plasma was obtained from at least three Sprague Dawley rats, beagle dogs, and cynomolgus monkeys. Pooled human plasma was obtained from three human males (that reportedly had not taken any medication in the previous 7 days before collection). K2EDTA was used as the anticoagulant. The pH of each pool of plasma was adjusted, if needed, to approximately pH 7.4 with hydrochloric acid or sodium hydroxide. Ultracentrifugation was performed using polycarbonate ultracentrifugation tube placed in a S80 AT2 rotor at 37° C. at 357000×g for 6 hours to achieve separation of PUC (supernatant) from plasma proteins. After centrifugation, the PUC was analyzed by LC MS for the calculation of protein binding. Protein Binding was evaluated as Percent unbound=(Cu/Co)×100 and Percent bound=100-percent unbound where Co is the concentration of test article in plasma prior to ultracentrifugation (ng/mL) and Cu is the concentration of test article in plasma in the ultracentrifugate (ng/mL).

plasma proteins of rat = assay: as above; assay type: in vitro ADME
Excerpt: as §1

[2] = 15000 ng/mL, 37° C., 6 hours, replicate, listed as ALT-801

## CC[C@H](C)[C@H](NC(=O)[C@H](Cc1ccccc1)NC(=O)[C@H](CCC(=O)O)NC(=O)[C@@H]1CCCCNC(=O)CC[C@H](NC(=O)[C@H](CC(=O)O)NC(=O)[C@H](CC(C)C)NC(=O)[C@H](Cc2ccc(O)cc2)NC(=O)[C@H](CCCCN)NC(=O)[C@H](CO)NC(=O)[C@H](Cc2ccc(O)cc2)NC(=O)[C@H](CC(=O)O)NC(=O)[C@H](CO)NC(=O)[C@@H](NC(=O)[C@H](Cc2ccccc2)NC(=O)[C@@H](NC(=O)CNC(=O)[C@H](CCC(N)=O)NC(=O)C(C)(C)NC(=O)[C@@H](N)Cc2c[nH]cn2)[C@@H](C)O)[C@@H](C)O)C(=O)N[C@@H](CCCCNC(=O)[C@H]2O[C@@H](OCCCCCCCCCCCCCCCCCC(=O)O)[C@H](O)[C@@H](O)[C@@H]2O)C(=O)N[C@@H](C)C(=O)N[C@@H](C)C(=O)N1)C(=O)N[C@@H](CCC(N)=O)C(=O)N[C@@H](Cc1c[nH]c2ccccc12)C(=O)N[C@@H](CC(C)C)C(=O)N[C@@H](CC(C)C)C(=O)N[C@@H](CCC(N)=O)C(=O)N[C@H](C(N)=O)[C@@H](C)O [SEQ ID NO: 1]
[1]
  fraction unbound: 0.00241
Plasma proteins of rat; 15000 ng/mL nominal
  Initial Conc, Mean: 5980 ng/mL
Plasma proteins of rat; 15000 ng/mL, 37° C., 6 hours
  Percentage of ALT-801 Bound, Mean: 99.8%
Plasma proteins of rat; [2]
  Percentage of ALT-801 Bound: 99.8% (2×) and 99.7%
  Percentage of ALT-801 Unbound: 0.204% and 0.184% and 0.334%
Plasma proteins of rat; 37° C., 6 hours
  Ultracentrifugate, Mean: 14.4 ng/mL
Plasma proteins of rat; 37° C., 6 hours, replicate, listed as ALT-801
  Ultracentrifugate, Rep: 12.2 ng/mL and 11.0 ng/mL and 20.0 ng/mL
Plasma proteins of rat; initial conc vs 15000 ng/mL
  Percent of Theoretical: 39.9%
